# Assay results: patent publication US4550116A, “Piperidine derivatives” (Fordonal, S.A., priority 1983, dated 1985)
# What was measured:
# mice = assay: in vivo
# in vivo = settings: mouse, po
smiles,measurement,setting,value
"CC(C)(C)c1ccc(C(=O)CCCN2CCC(OC(c3ccccc3)c3ccccc3)CC2)cc1 [Compound 1, 4-diphenylmethoxy-1-[3-(4-tert-butylbenzoyl)propyl]-piperidine]",oral toxicity in the mouse,mice,relatively low
same,LD50 at 48 h,in vivo,> 1000 mg/kg
